PubChem BioAssay AID624037 (The Scripps Research Institute Molecular Screening Center, 2012)
The entries are a selection whose mix differs from that of the whole data set. Active and inactive are the calls of the source.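 The calls were made as follows: active = activation above the run's mean over test compounds plus 3 SD (cut at about 23% in these data); inactive = the rest.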

Amino acid sequences for entries named in this document (tags omitted).
UniProt P08912, whole entry: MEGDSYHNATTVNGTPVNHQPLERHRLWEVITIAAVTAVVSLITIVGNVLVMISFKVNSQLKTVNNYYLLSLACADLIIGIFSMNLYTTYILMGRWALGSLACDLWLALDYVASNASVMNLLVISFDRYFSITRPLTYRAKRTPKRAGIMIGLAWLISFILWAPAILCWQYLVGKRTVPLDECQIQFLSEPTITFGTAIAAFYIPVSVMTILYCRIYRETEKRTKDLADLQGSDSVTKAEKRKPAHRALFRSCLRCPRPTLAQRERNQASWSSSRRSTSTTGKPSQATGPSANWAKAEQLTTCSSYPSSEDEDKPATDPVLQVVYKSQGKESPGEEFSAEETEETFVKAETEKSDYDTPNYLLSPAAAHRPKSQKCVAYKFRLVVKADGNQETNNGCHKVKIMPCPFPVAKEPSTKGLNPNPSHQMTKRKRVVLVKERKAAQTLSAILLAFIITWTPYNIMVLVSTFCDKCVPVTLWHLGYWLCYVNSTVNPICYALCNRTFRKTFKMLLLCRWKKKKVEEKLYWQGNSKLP

Each molecule was assayed against Muscarinic acetylcholine receptor M5 (Homo sapiens) (UniProt P08912) (assay: CHRM5 activators raising intracellular calcium – CHO-K1 cells, Fluo-8 calcium fluorescence, primary screen (AID 624037;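 also: signal is peak over basal fluorescence ratio across the kinetic read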)). Settings: CHO-K1 hM5 cells, at 3 µM, hits give high values, 0% DMSO wells, 100% maximal acetylcholine response.

SMILES	activation
O=C(NCC1(N2CCCCC2)CCCCC1)c1ccc(OC(F)F)cc1	inactive: -8.93%
CC(C)(C)n1nnnc1C(c1ccccc1OC(F)(F)F)N1CCC(n2c(=O)[nH]c3ccccc32)CC1 (stereo not drawn)	inactive: 4.28%
O=C(NCC1(N2CCCCC2)CCCCC1)c1cccc([N+](=O)[O-])c1	inactive: -12.8%
CSc1ccc(C(=O)NCC2(N3CCOCC3)CCCCC2)cc1	inactive: -2.82%
O=c1[nH]c2ccccc2n1C1CCN(C(c2ccccc2OC(F)(F)F)c2nnnn2C2CCCC2)CC1 (stereo not drawn)	inactive: -2.34%
N#CC1(Nc2ccccc2)CCN(CCc2ccccc2)CC1	inactive: -0.51%
CCN1CCC(Nc2ccc(Cl)cc2)CC1	inactive: -6.69%
O=C(NCC1(N2CCCCC2)CCCCC1)c1cccc(C(F)(F)F)c1	inactive: -0.75%
CN1CCN(CCOC(=O)C(O)(c2ccccc2)c2ccccc2)CC1	inactive: -7.68%
CC(C)c1ccc(C(=O)NCC2(N3CCOCC3)CCCCC2)cc1	inactive: -2.85%
COc1ccc(NC2CCN(C(=O)OC(C)(C)C)CC2)cc1	inactive: -3.02%
CCCCn1nnnc1C(c1cccc2ccccc12)N1CCC(n2c(=O)[nH]c3ccccc32)CC1 (stereo not drawn)	inactive: 4.76%
COc1cc(C(=O)NCC2(N3CCCCC3)CCCCC2)ccc1OC(F)F	inactive: -7.7%
O=C(NCC1(N2CCOCC2)CCCCC1)c1cc(=O)[nH]c2ccccc12	inactive: 3.01%
CCOc1ccc(C)cc1CN(CCCl)CCCl	inactive: -1.45%
O=C1CCN(Cc2ccccc2)CC1	inactive: -0.55%
CC(C)(C)n1nnnc1C(c1ccccc1)N1CCC(n2c(=O)[nH]c3ccccc32)CC1 (stereo not drawn)	inactive: 6.05%
COc1ccc(NC2CCN(CCc3ccccc3)CC2)c(OC)c1	inactive: -3.75%
CCOC(=O)N1CCC(Nc2ccc(F)cc2)CC1	inactive: -0.41%
CCCCn1nnnc1C(c1cc2ccccc2o1)N1CCC(n2c(=O)[nH]c3ccccc32)CC1 (stereo not drawn)	inactive: 4.44%
O=P1(N(CCCl)CCCl)SCCCS1	inactive: 2.63%
CCCCOc1ccc(C(=O)NCC2(N3CCOCC3)CCCCC2)cc1	inactive: -7.7%
O=C(NCC1(N2CCCCC2)CCCCC1)c1ccc(F)cc1	inactive: -6.05%
O=c1[nH]c2ccccc2n1C1CCN(C(c2ccccc2)c2nnnn2C2CCCCC2)CC1 (stereo not drawn)	inactive: 3.84%

SMILES	activation
O=c1[nH]c2ccccc2n1C1CCN(C(c2cccc3ccccc23)c2nnnn2C2CCCC2)CC1 (stereo not drawn)	inactive: 3.98%
CCOC(=O)N1CCC(Nc2cccc(C)c2)CC1	inactive: -6.57%
COc1cc(C(=O)NCC2(N(C)C)CCCCC2)ccc1OC(F)F	inactive: -2.28%
O=C(NCC1(N2CCCCC2)CCCCC1)c1cccs1	inactive: -1.78%
CCCCn1nnnc1C(CC)N1CCC(n2c(=O)[nH]c3ccccc32)CC1 (stereo not drawn)	inactive: 7.52%
CCCCn1nnnc1C(c1cccs1)N1CCC(n2c(=O)[nH]c3ccccc32)CC1 (stereo not drawn)	inactive: 4.32%
O=C(NCC1(N2CCCCC2)CCCCC1)c1ccc(=O)[nH]c1	inactive: -1.42%
CC(C)(C)OC(=O)N1CCC(N(C(=O)c2ccccc2)c2ccc(F)cc2)CC1	inactive: -2.69%
COc1ccc(C(=O)NCC2(N3CCCCC3)CCCCC2)c(OC)c1OC	inactive: -1.81%
CCC(c1nnnn1C1CCCC1)N1CCC(n2c(=O)[nH]c3ccccc32)CC1 (stereo not drawn)	inactive: 13.4%
COc1ccc(C(=O)NCC2(N3CCCCC3)CCCCC2)cc1	inactive: -3.88%
Cc1cccc(NC2(C#N)CCN(Cc3ccccc3)CC2)c1	inactive: 2.98%
CSc1ccccc1C(=O)NCC1(N2CCCCC2)CCCCC1	inactive: -2.89%
O=C(NCC1(N2CCOCC2)CCCCC1)c1cc2ccccc2o1	inactive: -1.77%
Cc1cc(C)cc(N(C(=O)c2ccccc2)C2CCN(C(=O)OC(C)(C)C)CC2)c1	inactive: -10.7%
O=C(NCC1(N2CCCCC2)CCCCC1)c1ccc(Cl)nc1	inactive: -5.85%
O=c1[nH]c2ccccc2n1C1CCN(C(c2ccccc2OC(F)(F)F)c2nnnn2C2CCCCC2)CC1 (stereo not drawn)	inactive: 2.01%
CCCCn1nnnc1C(c1ccc(OC)cc1)N1CCC(n2c(=O)[nH]c3ccccc32)CC1 (stereo not drawn)	inactive: 2.7%
CCOC(=O)N1CCC(Nc2ccc(OC)cc2)CC1	inactive: 0.34%
COc1ccc(Cl)cc1C(=O)NCC1(N2CCOCC2)CCCCC1	inactive: -0.6%
O=C(NCC1(N2CCCCC2)CCCCC1)c1ccc(Cl)s1	inactive: -2.85%
N#CC1(Nc2ccccc2)CCN(Cc2ccccc2)CC1	inactive: -0.51%
O=C(OC1CN2CCC1CC2)C1c2ccccc2Oc2ccccc21 (stereo not drawn)	inactive: -10.4%
O=c1[nH]c2ccccc2n1C1CCN(C(c2cc3ccccc3o2)c2nnnn2C2CCCCC2)CC1 (stereo not drawn)	inactive: 1.4%
